# In patent US20090286829A1, “QUINOLYNYLMETHYLIMIDIZOLES AS THERAPEUTIC AGENTS” (ALLERGAN, INC., priority 2008, published 2009):
# The chains behind the UniProt entries cited, without tags or fusion partners.
# UniProt P08913, whole entry: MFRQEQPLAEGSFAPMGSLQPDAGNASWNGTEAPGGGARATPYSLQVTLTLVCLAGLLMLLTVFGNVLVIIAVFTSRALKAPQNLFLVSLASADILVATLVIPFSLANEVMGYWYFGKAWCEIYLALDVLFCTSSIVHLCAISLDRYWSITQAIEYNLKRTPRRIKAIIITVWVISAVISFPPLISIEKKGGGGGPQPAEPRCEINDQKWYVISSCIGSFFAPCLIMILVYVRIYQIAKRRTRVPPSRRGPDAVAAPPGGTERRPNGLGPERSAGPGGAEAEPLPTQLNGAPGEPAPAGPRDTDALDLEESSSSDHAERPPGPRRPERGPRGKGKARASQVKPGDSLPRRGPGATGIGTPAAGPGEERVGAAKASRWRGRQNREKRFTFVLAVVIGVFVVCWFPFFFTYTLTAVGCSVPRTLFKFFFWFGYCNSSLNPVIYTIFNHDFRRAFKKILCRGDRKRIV
# Molecular target: T1, Alpha 2A (Homo sapiens, UniProt P08913)
# T1 construct: expressed in transfected cells; host or cells: NIH-3T3
# Test: RSAT assay, alpha 2A receptor
# Type: cell-based
# Settings: transfected NIH-3T3 cells with Gq/i5, NA = not active at concentrations less than 10 micromolar
# Description: The RSAT assay measures a receptor-mediated loss of contact inhibition that results in selective proliferation of receptor-containing cells in a mixed population of confluent cells. The increase in cell number is assessed with an appropriate transfected marker gene such as -galactosidase, the activity of which can be easily measured in a 96-well format. Receptors that activate the G protein, Gq, elicit this response. Alpha2 receptors, which normally couple to Gi, activate the RSAT response when coexpressed with a hybrid Gq protein that has a Gi receptor recognition domain, called Gq/i5.
# NIH-3T3 cells are plated at a density of 2×10^6 cells in 15 cm dishes and maintained in Dulbecco's modified Eagle's medium supplemented with 10% calf serum. […] After washing with phosphate-buffered saline, β-galactosidase enzyme activity is determined by adding 200 μl of the chromogenic substrate (consisting of 3.5 mM o-nitrophenyl-β-D-galactopyranoside and 0.5% nonidet P-40 in phosphate buffered saline), incubating overnight at 30° C. and measuring optical density at 420 nm. The absorbance is a measure of enzyme activity, which depends on cell number and reflects a receptor-mediated cell proliferation. The efficacy or intrinsic activity is calculated as a ratio of the maximal effect of the drug to the maximal effect of a standard full agonist for each receptor subtype. […]
smiles,measurement,value
Cc1[nH]cnc1Cc1ccc2cccnc2c1C [8-methyl-7-((5-methyl-1H-imidazol-4-yl)methyl)quinoline],EC50,0.284 µM
